# Assay: Selective index was evaluated from inhibitory concentrations of compound
# Assay type: functional
smiles,measurement,value
Cc1cn([C@H]2C[C@H](N=[N+]=[N-])[C@@H](CO)O2)c(=O)[nH]c1=O [ZIDOVUDINE],Selectivity index,8000

# — ChEMBL document CHEMBL1130933, “Structure-based design of N-[2-(1-piperidinylethyl)]-N'-[2-(5-bromopyridyl)]-thiourea and N-[2-(1-piperazinylethyl)]-N'-[2-(5-bromopyridyl)]-thiourea as potent non-nucleoside inhibitors of HIV-1 reverse transcriptase” (Bioorg Med Chem Lett, 1998)
